These are literature values, as cited in patent US20250099434A1, “METHODS OF TREATING AMYLOID RELATED BRAIN DISORDERS USING NOVEL COMPOUNDS AND ANTIBODIES” (T3D Therapeutics, Inc., priority 2022, published 2025).

Like-named read-outs stand apart in the source and are kept apart here.

For this data set the following is noted: cited from earlier work.

For the substance “ADUHELM: amyloid beta-directed antibody indicated for the treatment of Alzheimer's disease sold by Biogen”, for the setting “10 mg/kg”, the “ARIA-E observed, % of patients” value is listed as 35%; the “ARIA-H observed, % of patients” value is recorded as 21%; the “clinical symptoms present, % of patients who had an observation of ARIA (-E and/or -H)” value was 24%; the “confusion/delirium/altered mental status/disorientation in patients with ARIA” value is recorded as 5%. Besides, where the note is “10 mg/kg”, the “dizziness/vertigo in patients with ARIA” value is reported as 4%, the “headache in patients with ARIA” value is listed as 13%, the “nausea in patients with ARIA” value is on record as 2% and the “patients with more than one episode of ARIA-E” value is listed as 10%. Moreover, where the note is “10 mg/kg”, the “serious symptoms associated with ARIA, % of patients” value is recorded as 0.3% and the “visual disturbance in patients with ARIA” value is on record as 2%. Moreover, the “AD patients treated who develop ARIA” value (Jäkel et al., 2021) is “≈ 40%”. Under “by 12 weeks”, the “resolution, % of ARIA-E patients” value is listed as 68%. Moreover, where the note is “by 20 weeks”, the “resolution, % of ARIA-E patients” value is 91%. The “clinical symptoms resolved, % of patients” value (during the period of observation) was 88%. For the same substance, for the setting “human, in vivo”, the “incidence of ARIA-E in ApoE ε4 carriers” value is recorded as 42% and the “incidence of ARIA-E in ApoE ε4 non-carriers” value was 20%. In addition, the “resolution, % of ARIA-E patients” value (overall after detection) is recorded as 98%. Also, where the note is “planned dose 10 mg/kg”, the “maximum radiographic severity mild, % of patients who had ARIA-E” value is listed as 30%; the “maximum radiographic severity moderate, % of patients who had ARIA-E” value is listed as 58%; the “maximum radiographic severity severe, % of patients who had ARIA-E” value is 13%.
